Earlier results as cited in patent US11723874B2, “Delayed release deferiprone tablets and methods of using the same” (Chiesi Farmaceutici S.p.A., priority 2017, dated 2023).

Tested on: ALS

In the case of `Nc1nc2ccc(OC(F)(F)F)cc2s1` [Riluzole], the increase in survival is given as 2-3 months.
